Key:
Type in all cases: cell-based
[1] = tested on: human intestinal organoid; assay: qRT-PCR of mature intestinal marker and conjugated protein genes in intestinal organoid; conditions: mature HIO (IL-2) vs control HIO
Experimental: (§1) The formed human intestinal organoid (immature control, control HIO) was maintained by subculture once every 14 days with exchanging the medium once every 2 days. Additionally, the mature intestinal organoid (mature HIO) was cultured by subculture at least twice with treating with 1 ng/ml of IL-2.
(§2) For qRT-PCR analysis, human pluripotent stem cells, definitive endoderm cells, hindgut cells, control intestinal organoids, and mature intestinal organoids were collected, total RNA was extracted using a RNeasy kit, and cDNA was synthesized using Superscript IV First-Strand Synthesis System. Then, the analysis was performed using the primers targeting intestinal cell-specific marker genes and 7500 Fast Real-Time PCR System. Human small intestine total RNA (HSI) was purchased and used as a positive control. Morphological changes according to intestinal organoid maturation (FIG. 4b, upper panel) were investigated. As a result, it was confirmed that the size of the intestinal organoid (FIG. 4b, lower left panel) and the number of budding structures of the intestinal organoid (FIG. 4b, lower right panel) were increased in the mature intestinal organoid (Mature HIO) treated with IL-2 compared to the control intestinal organoid (Control HIO). […] Gene expression of conjugated proteins (ZO-1, OCLN, CLDN1, CLDN3, and CLDN5) involved in membrane function was analyzed. […]

[2] = tested on: human intestinal organoid; assay: Immunostaining analysis of conjugated protein (ZO-1) in intestinal organoid; conditions: mature HIO (IL-2) vs control HIO, FIG. 4d
Experimental: as §1, §2

[3] = tested on: human intestinal organoid; assay: Morphological changes according to intestinal organoid maturation; conditions: mature HIO treated with 1 ng/ml IL-2 vs control HIO
Experimental: as §1, §2

Q: Which “expression level of the mature intestinal marker gene” value ([1]; human small intestine (HSI) RNA as positive control, FIG. 4c) does the source give for IL-2 here?
A: The value was “increased similarly to that of the human small intestine”.

Q: And the “gene expression of conjugated proteins (ZO-1, OCLN, CLDN1, CLDN3, and CLDN5)” value ([1]; level corresponding to HSI, FIG. 4e)?
A: Its value is “highly expressed”.

Q: What about the “conjugated protein (ZO-1) expression” value [2] of the same substance?
A: Its value is “highly expressed”.

Q: And the “size of the intestinal organoid” value ([3]; FIG. 4b lower left)?
A: Its value is “increased”.

Q: And the “number of budding structures of the intestinal organoid” value ([3]; FIG. 4b lower right)?
A: The value was “increased”.

Source: patent US20240219333A1, “IMPEDANCE-BASED INTESTINAL ORGANOID EVALUATION SYSTEM” (KOREA RESEARCH INSTITUTE OF CHEMICAL TECHNOLOGY, priority 2020, published 2024)
